Test results reported in IntAct's records for PubMed 22198837.

B1: FACT complex subunit POB3 (Saccharomyces cerevisiae), Q04636 (parent)
chain: MSTDFDRIYLNQSKFSGRFRIADSGLGWKISTSGGSAANQARKPFLLPATELSTVQWSRGCRGYDLKINTKNQGVIQLDGFSQDDYNLIKNDFHRRFNIQVEQREHSLRGWNWGKTDLARNEMVFALNGKPTFEIPYARINNTNLTSKNEVGIEFNIQDEEYQPAGDELVEMRFYIPGVIQTNVDENMTKKEESSNEVVPKKEDGAEGEDVQMAVEEKSMAEAFYEELKEKADIGEVAGDAIVSFQDVFFTTPRGRYDIDIYKNSIRLRGKTYEYKLQHRQIQRIVSLPKADDIHHLLVLAIEPPLRQGQTTYPFLVLQFQKDEETEVQLNLEDEDYEENYKDKLKKQYDAKTHIVLSHVLKGLTDRRVIVPGEYKSKYDQCAVSCSFKANEGYLYPLDNAFFFLTKPTLYIPFSDVSMVNISRAGQTSTSSRTFDLEVVLRSNRGSTTFANISKEEQQLLEQFLKSKNLRVKNEDREVQERLQTALGSDSDEEDINMGSAGEDDESVDEDFQVSSDNDADEVAEEFDSDAALSDAEGGSDEERPSKKPKVE

Variants of: B1
Details: with h3_yeast HHT1

**Q.** With MSTDFDRIYLNQSKFSGRFRIADSGLGWKISTSGGSAANQARKPFLLPATELSTVQWSRGCRGYDLKINTKNQGVIQLDGFSQDDYNLIKNDFHRRFNIQVEQREHSLRGWNWGKTDLARNEMVFALNGKPTFEIPYARINNTNLTSKNEVGIEFNIQDEEYQPAGDELVEMRFYIPGVIQTNVDENMTKKEESSNEVVPKKEDGAEGEDVQMAVEEKSMAEAFYEELKEKADIGEVAGDAIVSFQDVFFETPRGRYDIDIYKNSIRLRGKTYEYKLQHRQIQRIVSLPKADDIHHLLVLAIEPPLRQGQTTYPFLVLQFQKDEETEVQLNLEDEDYEENYKDKLKKQYDAKTHIVLSHVLKGLTDRRVIVPGEYKSKYDQCAVSCSFKANEGYLYPLDNAFFFLTKPTLYIPFSDVSMVNISRAGQTSTSSRTFDLEVVLRSNRGSTTFANISKEEQQLLEQFLKSKNLRVKNEDREVQERLQTALGSDSDEEDINMGSAGEDDESVDEDFQVSSDNDADEVAEEFDSDAALSDAEGGSDEERPSKKPKVE [T251E] as the variant, how does the “effect of a mutation on the interaction” value read?
**A.** The value was “disrupting interaction strength”.

**Q.** Which “effect of a mutation on the interaction” value does the source give for MSTDFDRIYLNQSKFSGRFRIADSGLGWKISTSGGSAANQARKPFLLPATELSTVQWSRGCRGYDLKINTKNQGVIQLDGFSQDDYNLIKNDFHRRFNIQVEQREHSLRGWNWGKTDLARNEMVFALNGKPTFEIPYARINNTNLTSKNEVGIEFNIQDEEYQPAGDELVEMRFYIPGVIQTNVDENMTKKEESSNEVVPKKEDGAEGEDVQMAVEEKSMAEAFYEELKEKADIGEVAGDAIVSFQDVEFTTPRGRYDIDIYKNSIRLRGKTYEYKLQHRQIQRIVSLPKADDIHHLLVLAIEPPLRQGQTTYPFLVLQFQKDEETEVQLNLEDEDYEENYKDKLKKQYDAKTHIVLSHVLKGLTDRRVIVPGEYKSKYDQCAVSCSFKANEGYLYPLDNAFFFLTKPTLYIPFSDVSMVNISRAGQTSTSSRTFDLEVVLRSNRGSTTFANISKEEQQLLEQFLKSKNLRVKNEDREVQERLQTALGSDSDEEDINMGSAGEDDESVDEDFQVSSDNDADEVAEEFDSDAALSDAEGGSDEERPSKKPKVE [F249E] here?
**A.** The value was “disrupting interaction strength”.

**Q.** How did the “effect of a mutation on the interaction” value turn out when MSTDFDRIYLNQSKFSGRFRIADSGLGWKISTSGGSAANQARKPFLLPATELSTVQWSRGCRGYDLKINTKNQGVIQLDGFSQDDYNLIKNDFHRRFNIQVEQREHSLRGWNWGKTDLARNEMVFALNGKPTFEIPYARINNTNLTSKNEVGIEFNIQDEEYQPAGDELVEMRFYIPGVIQTNVDENMTKKEESSNEVVPKKEDGAEGEDVQMAVEEKSMAEAFYEELKEKADIGEVAGDAIVSFQDVFFTEPRGRYDIDIYKNSIRLRGKTYEYKLQHRQIQRIVSLPKADDIHHLLVLAIEPPLRQGQTTYPFLVLQFQKDEETEVQLNLEDEDYEENYKDKLKKQYDAKTHIVLSHVLKGLTDRRVIVPGEYKSKYDQCAVSCSFKANEGYLYPLDNAFFFLTKPTLYIPFSDVSMVNISRAGQTSTSSRTFDLEVVLRSNRGSTTFANISKEEQQLLEQFLKSKNLRVKNEDREVQERLQTALGSDSDEEDINMGSAGEDDESVDEDFQVSSDNDADEVAEEFDSDAALSDAEGGSDEERPSKKPKVE [T252E] was run?
**A.** The value was “disrupting interaction strength”.

**Q.** Which “effect of a mutation on the interaction” value does the source give for MSTDFDRIYLNQSKFSGRFRIADSGLGWKISTSGGSAANQARKPFLLPATELSTVQWSRGCRGYDLKINTKNQGVIQLDGFSQDDYNLIKNDFHRRFNIQVEQREHSLRGWNWGKTDLARNEMVFALNGKPTFEIPYARINNTNLTSKNEVGIEFNIQDEEYQPAGDELVEMRFYIPGVIQTNVDENMTKKEESSNEVVPKKEDGAEGEDVQMAVEEKSMAEAFYEELKEKADIGEVAGDAIVSFQDVFFTTPRGRYDIDIYKNSIRLRGKTYEYKLQHRQIQRIVSLPKADDIHHLLVLAIEPPLRKGQTTYPFLVLQFQKDEETEVQLNLEDEDYEENYKDKLKKQYDAKTHIVLSHVLKGLTDRRVIVPGEYKSKYDQCAVSCSFKANEGYLYPLDNAFFFLTKPTLYIPFSDVSMVNISRAGQTSTSSRTFDLEVVLRSNRGSTTFANISKEEQQLLEQFLKSKNLRVKNEDREVQERLQTALGSDSDEEDINMGSAGEDDESVDEDFQVSSDNDADEVAEEFDSDAALSDAEGGSDEERPSKKPKVE [Q308K] here?
**A.** Its value is “increasing interaction strength”.
